The record followed here is ChEMBL document CHEMBL4229329, “Design of Small-Molecule Active-Site Inhibitors of the S1A Family Proteases as Procoagulant and Anticoagulant Drugs” (J Med Chem, 2018).

For this assay, the species on record is Homo sapiens. The assay is described as follows: Selectivity ratio of IC50 for human thrombin to IC50 for human TF/F7a.

On to `CCS(=O)(=O)N[C@H](Cc1ccc(-c2ccccc2)cc1)C(=O)N[C@@H](CCC(N)=O)C(=O)NCc1ccc(C(=N)N)cc1`, for which the Ratio IC50 was more than 100.
